The text below walks through data of PubChem BioAssay AID588852 (The Scripps Research Institute Molecular Screening Center, 2011).

Amino acid sequences for entries named in this document (tags omitted). A change or cut given only in a name is not applied to a line headed by its entry.
UniProt P11229: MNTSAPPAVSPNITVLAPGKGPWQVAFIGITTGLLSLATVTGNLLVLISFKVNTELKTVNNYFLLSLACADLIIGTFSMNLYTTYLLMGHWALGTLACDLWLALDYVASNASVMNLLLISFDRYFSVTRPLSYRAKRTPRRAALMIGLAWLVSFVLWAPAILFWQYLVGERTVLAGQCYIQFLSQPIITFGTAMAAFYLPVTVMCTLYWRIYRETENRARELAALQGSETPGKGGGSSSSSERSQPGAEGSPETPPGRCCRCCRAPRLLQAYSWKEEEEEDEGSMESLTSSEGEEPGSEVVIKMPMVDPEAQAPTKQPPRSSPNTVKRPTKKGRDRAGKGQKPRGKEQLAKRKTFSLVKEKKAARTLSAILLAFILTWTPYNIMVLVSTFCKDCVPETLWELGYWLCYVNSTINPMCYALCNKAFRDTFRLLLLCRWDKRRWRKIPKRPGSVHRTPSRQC

The structures appear in SMILES notation. Several values for one entry are separate records, joined by “and”; a condition that tells them apart may be missing. Equal entries are not always repeated. The list shows a part of the results, in another mix than the full data. Activity calls are given as the source filed them.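 The calls were made as follows: active = percent inhibition above its own plate's cutoff, namely the mean of that plate's compound wells plus 3 SD; inactive = the rest.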

This experiment addresses Muscarinic acetylcholine receptor M1 (Homo sapiens) (UniProt P11229). The experiment can be described thus: human M1 muscarinic receptor antagonists, primary screen, CHO-K1 cells, Fluo-8 calcium fluorescence, 1536-well (AID 588852).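 Also: peak over basal fluorescence ratio during 140 s after agonist addition; 0% = ACh EC80 plus DMSO and 100% = DMSO alone without agonist.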 As to conditions: CHO-K1 hM1, Fluo-8 calcium fluorescence, ACh EC80 antagonist; at 3 µM; stronger effect = higher value.
One may read the inhibition as the change of the read-out against control, counted positive when it falls. Regarding `CN(C(=O)Cc1ccccc1)[C@@H]1CC[C@]2(CCCO2)C[C@H]1N1CCCC1`, the inhibition was inactive: -24.3%. Under `CCOP1(=S)c2c(C)nn(CCC#N)c2N=C(c2ccc(F)cc2)N1C` (centres undefined) stands inactive: -18.7%. For the molecule `N#CCCN(C(=O)COC(=O)C(O)(c1ccccc1)c1ccccc1)c1ccc(F)cc1`, the inhibition is inactive: -2.54%. As for `CN(C(=O)Cc1ccc(Cl)c(Cl)c1)[C@H]1CC[C@@]2(CCCO2)C[C@@H]1N1CCCC1`, the figure is inactive: -3.89%; as for `O=[N+]([O-])c1ccc2c(c1)nnn2O`, inactive: -0.48%. Under `CN(C)C(=O)c1cc([N+](=O)[O-])cc2c1-c1c(cc([N+](=O)[O-])cc1[N+](=O)[O-])C2=O` stands inactive: 33.4%; under `NC(=O)Nc1ccc([As](=O)(O)O)cc1`, inactive: 5.94%; under `COc1ccc(CC(C)NCC(O)c2ccc(O)c(NC=O)c2)cc1` (centres undefined), inactive: -24.2% and inactive: -11.5%. Consider `Nc1ccccc1[As](=O)(O)c1ccccc1`, for which the inhibition was inactive: 10.4%. Under `O=C(O)COc1ccc([As](=O)(O)O)cc1[N+](=O)[O-]` stands inactive: -8.48%. Under `O=P(Nc1nccs1)(Oc1ccccc1)Oc1ccccc1` stands inactive: 5.57%. Turning to `O=P(Nc1nccs1)(c1ccccc1)c1nc2ccccc2s1` (centres undefined), the inhibition was inactive: 0.09%. As to `CCOP1(=S)c2c(C)nn(CCC#N)c2N=C(c2ccccc2F)N1C` (centres undefined), the inhibition is inactive: -5.63%. As for `CS(=O)(=O)c1cc([N+](=O)[O-])c2no[n+]([O-])c2c1`, the figure is inactive: -15.2%. As for `CCOP(=O)(Nc1cccc2ccccc12)OCC`, the figure is inactive: -10.9%; as for `COc1cc(C2NCCC3(OCCO3)C2(C)C)cc(OC)c1OC` (centres undefined), inactive: -14.7%; as for `Nc1cccc2c([As](=O)(O)O)cccc12`, inactive: 0.13%. As for `Cc1ccc(NCCc2c([N+](=O)[O-])cc([N+](=O)[O-])cc2[N+](=O)[O-])cc1`, the figure is inactive: -3.89%; as for `C[C@H]1C(=O)O[C@@H]2CCN3CC=C(COC(=O)[C@](C)(O)[C@]1(C)O)[C@H]23`, inactive: -21.9%. For `CCCOP(=S)(Nc1nc(N)cc(=O)[nH]1)OCCC`, the inhibition is inactive: -4.32%. As for `Cc1cccc(OCC(=O)OC2CN3CCC2CC3)c1` (centres undefined), the figure is inactive: 6.98%; as for `O=[As](O)(c1cccc(O)c1)c1cccc(O)c1`, inactive: -12.2%; as for `COc1ccc(C[C@H]2NC[C@H](O)[C@H]2OC(C)=O)cc1`, inactive: -21.6%.

For the molecule `CS(=O)(=O)c1ccc(Cl)c(NC(=O)COC(=O)C(O)(c2ccccc2)c2ccccc2)c1`, the inhibition is inactive: 3.51%. As to `O=[As](O)(O)c1cccnc1`, the inhibition is inactive: -7.99%. As for `CC(C)/C=N\N=C(\N)N[N+](=O)[O-]`, the figure is inactive: -1.44%; as for `CN(C(=O)Cc1ccc(Cl)c(Cl)c1)[C@@H]1CCCC[C@H]1N1CCCC1`, inactive: -8.5%; as for `CC1(CBr)Cn2c(nc3ccccc3c2=O)S1` (centres undefined), inactive: -8.44%. As for `COc1ccccc1CNC(=O)COC(=O)C(O)(c1ccccc1)c1ccccc1`, the figure is inactive: 2.02%; as for `CC(C)(C)C(=O)NC(Sc1ncccn1)C(Cl)(Cl)Cl` (centres undefined), inactive: -0.92%; as for `O=P1(N(CCCl)CCCl)NCCC(C(F)(F)F)O1` (centres undefined), inactive: -3.54%. With `Clc1n[nH]nc1-c1nn[nH][15n]1`, the inhibition was inactive: -13.8%.

Consider `CCOP(=O)(NC(=NC(C)c1ccccc1)NC(C)c1ccccc1)OCC` (centres undefined), for which the inhibition is inactive: -1.97%. Under `O=P1(Nc2ccccn2)COc2ccccc2OC1` stands inactive: -10.5%; under `CCC1=CC2Cc3nc4ccc(Cl)cc4c(N)c3C(C1)C2` (centres undefined), inactive: 7.79%; under `CCOP(=O)(Nc1ccc(C)cn1)OCC`, inactive: -10.2%. Under `CN(CCCl)Cc1cc(Cl)c(NC2=NCCN2)c(Cl)c1` stands inactive: -26.1%. Under `Nc1cccc([As](=O)(O)c2ccccc2)c1` stands inactive: 3.94%; under `O=[N+]([O-])c1cc([As](=O)(O)O)ccc1O`, inactive: -17.9%; under `O=[As](O)(c1cccs1)c1cccs1`, inactive: -12.4%. With `Cc1ccc(OCC(=O)OC2CN3CCC2CC3)cc1` (centres undefined), the inhibition was inactive: 9.79%. As for `O=P1(Nc2ccc(Br)cn2)COc2ccccc2OC1`, the figure is inactive: -6%; as for `NS(=O)(=O)c1cccc(NC(=O)COC(=O)C(O)(c2ccccc2)c2ccccc2)c1`, inactive: -14.2%; as for `Cc1ccc(S(=O)(=O)N(CCCN)CCCc2c(C)nc(N)[nH]c2=O)cc1`, inactive: -5.58%. Under `O=P1(Nc2ncccn2)COc2ccccc2OC1` stands inactive: -11.1%.

Consider `CCCC1OP(=O)(Nc2ccccc2)OCC1CC` (centres undefined), for which the inhibition is inactive: 10.6%. As for `O=C(/C=C/c1ccccc1)OC1CN2CCC1CC2` (centres undefined), the figure is inactive: 3.63%; as for `CC1CCC(C(C)C)C(OP(=O)(Nc2ccccn2)c2ccccc2)C1` (centres undefined), inactive: 5.51%; as for `Cc1ccc(C(=O)OC2CN3CCC2CC3)cc1` (centres undefined), inactive: 6.48%. Regarding `Cc1nn(-c2ccccc2)c2c1P(=O)(N1CCOCC1)N(C)C(c1ccccc1)=N2` (centres undefined), the inhibition is inactive: -2.76%. As for `O=P(Nc1ccccn1)(c1cccc2ccccc12)c1cccc2ccccc12`, the figure is inactive: -1.88%; as for `Cc1cc(SC(NC=O)C(Cl)(Cl)Cl)ncn1` (centres undefined), inactive: -10.6%.

In the case of `O=[N+]([O-])c1ccc(Nc2ccc(Oc3ccc([N+](=O)[O-])cc3[N+](=O)[O-])cc2)c([N+](=O)[O-])c1`, the inhibition is inactive: 12.2%. Under `CCOC(=O)Nc1cccc([As](=O)(O)O)c1` stands inactive: -14.3%; under `COP(=O)(OC)N1CC1c1ccccc1` (centres undefined), inactive: -11.5%. As for `Cc1cc(SC(NC(=O)c2ccccc2)C(Cl)(Cl)Cl)nc(C(C)C)n1` (centres undefined), the figure is inactive: 1.22%. Under `CCOC(=O)Nc1ccc([As](=O)(O)O)c(O)c1` stands inactive: -25.2%; under `O=C(O)C(O)c1ccc(N(CCCl)CCCl)cc1` (centres undefined), inactive: -9.31%; under `C/C=C1/CC(C)C(C)(O)C(=O)OCC2CCN3CCC(OC1=O)C23` (centres undefined), active: 99.6%.

For `CC1CCNP(=O)(N(CCCl)CCCl)O1` (centres undefined), the inhibition was inactive: -3.34%. Under `CCC(C)N(CC(C)C)C(=S)SC(NC(C)=O)C(Cl)(Cl)Cl` (centres undefined) stands inactive: -15.4%. Under `CSc1ccc(Nc2c([N+](=O)[O-])cc([N+](=O)[O-])cc2[N+](=O)[O-])cc1` stands active: 29.2%; under `O=C(OC1CN2CCC1CC2)c1cccc([N+](=O)[O-])c1` (centres undefined), inactive: 18.2%. Under `CCOC(=O)c1ccc(NC(=O)C(C)(CCl)SC)cc1` (centres undefined) stands inactive: -8.02%; under `O=C(O)C(=O)c1ccc(N(CCCl)CCCl)cc1`, inactive: -7.28%; under `O=C(Nc1ccncc1[N+](=O)[O-])c1ccc([N+](=O)[O-])cc1[N+](=O)[O-]`, inactive: -3.46%. For `COC(=O)C1(C)COP(=O)(N2CCCC2)OC1` (centres undefined), the inhibition is inactive: -17.2%. Under `COP1(=S)c2c(C)nn(CCC#N)c2N=C(c2ccc(F)cc2)N1C` (centres undefined) stands inactive: -5.91%; under `O=[N+]([O-])c1cc(Oc2ccc([N+](=O)[O-])cc2C(F)(F)F)cc([N+](=O)[O-])c1`, inactive: -11.3%. Under `COc1ccc(N/C(=N/P(=O)(N2CCOCC2)N2CCOCC2)N2CCOCC2)cc1` stands inactive: -6.67%; under `O=P1(N(CCCl)CCCl)OCCCN1CCCl` (centres undefined), inactive: -5.75%; under `O=P1(N(CCCl)CCCl)Nc2ccccc2N1`, inactive: -7.1%.

As for `COc1cc(I)ccc1[As](=O)(O)O`, the inhibition is inactive: -9.23%. As for `COc1ccc2nc(NP(=O)(c3ccccc3)c3ccccc3)sc2c1`, the inhibition was inactive: 2.7%. As for `Cc1c2c(nc3ccccc13)SC(C(Cl)Cl)C2` (centres undefined), the figure is inactive: -6.97%. As to `Cc1cc(=O)[nH]c(N[N+](=O)[O-])n1`, the inhibition was inactive: -15.1%.

As for `O=[N+]([O-])c1cc([N+](=O)[O-])c(-c2ccn[nH]2)s1`, the inhibition is inactive: 1.84%. As for `CC(C)NC(=O)NP(=O)(Oc1ccccc1)Oc1ccccc1`, the figure is inactive: -10%; as for `O=C(OC1CN2CCC1CC2)c1cccc2[nH]cnc12` (centres undefined), inactive: -10.3%. As for `CCN(CC)C(=S)SC(NC=O)C(Cl)(Cl)Cl` (centres undefined), the figure is inactive: -22.6%; as for `ClCCSc1nnc(-c2cccnc2)o1`, inactive: -7.52%. With `COC(=O)C1(C)COP(=O)(N2CCCCCC2)OC1` (centres undefined), the inhibition is inactive: -13.9%.

`CC(C)c1ccc(OP(=O)(Nc2ccccn2)Oc2ccccc2F)cc1` (centres undefined): the inhibition is inactive: -0.15%. As for `CC(Cc1ccc(O)cc1)NCC(O)c1cc(O)cc(O)c1` (centres undefined), the figure is inactive: -17.3%; as for `Cc1ccc(OP(=O)(Nc2ccc([N+](=O)[O-])cn2)Oc2ccc(C)cc2)cc1`, inactive: -7.53%. As for `Cc1ccc2nc3c(c(C)c2c1)CC(C(Cl)Cl)S3` (centres undefined), the figure is inactive: -18.1%; as for `O=[N+]([O-])c1ccc(-c2cc([N+](=O)[O-])c(O)c([N+](=O)[O-])c2)cc1`, inactive: -11.8%; as for `C[As](=O)(O)c1cccc(C(=O)O)c1`, inactive: -3.78%.

Regarding `O=[As](O)(c1ccc(O)cc1)c1ccccc1O`, the inhibition is inactive: -2.83%. As for `Nc1cccc2ccc([As](=O)(O)O)cc12`, the figure is inactive: -7.01%; as for `CCN(N=Nc1nonc1N)c1nonc1N`, inactive: -12.4%; as for `Cc1ccc(NP(=O)(Oc2ccccc2F)Oc2ccccc2F)nc1`, inactive: 18.9%. On to `CN(C(=O)Cc1ccc(Cl)c(Cl)c1)[C@H]1CCCC[C@@H]1N1CCCC1`, for which the inhibition is inactive: -13.5%. As for `Cc1cc(SC(NC(=O)c2ccc(F)cc2)C(Cl)(Cl)Cl)ncn1` (centres undefined), the figure is inactive: 0.79%.

Take `CCOP(=O)(Nc1ccccc1)OCC`: the inhibition is inactive: 0.03%.

For the molecule `O=P(Nc1nc2ccc(Cl)cc2s1)(c1ccccc1)c1ccccc1`, the inhibition is inactive: 17.2%. Under `CN(C)P(=O)(N(C)C)n1c(Nc2ccccc2)nnc1-c1ccccc1` stands inactive: -9.29%. As for `CCCC1OP(N)(=O)OCC1CC` (centres undefined), the figure is inactive: -17.3%; as for `CC(=O)O[C@]1(C)C(=O)OC/C2=C/CN(C)CCC(OC(=O)[C@@](O)(C(C)O)C[C@H]1C)C2=O` (some centres undefined), inactive: -3.93%.
